Measured values reported in ChEMBL document CHEMBL5137064, “Therapeutic Potential and Activity Modulation of the Protein Lysine Deacylase Sirtuin 5” (J Med Chem, 2022).

Sequences of proteins named here, by UniProt entry; tags and fusion partners are left off. A change or cut given only in a name is not applied to a line headed by its entry.
UniProt Q9NXA8: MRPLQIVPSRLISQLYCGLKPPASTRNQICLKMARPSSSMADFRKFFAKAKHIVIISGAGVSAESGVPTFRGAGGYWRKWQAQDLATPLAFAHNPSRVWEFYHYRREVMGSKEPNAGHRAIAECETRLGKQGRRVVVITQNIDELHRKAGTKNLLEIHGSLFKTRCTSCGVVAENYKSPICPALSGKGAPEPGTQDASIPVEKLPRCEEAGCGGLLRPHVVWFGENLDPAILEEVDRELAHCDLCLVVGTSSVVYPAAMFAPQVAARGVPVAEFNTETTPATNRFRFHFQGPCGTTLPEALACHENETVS

How the values were obtained:
Conditions in all cases: filed as activator
[1] = target: T1, NAD-dependent protein deacylase sirtuin-5, mitochondrial (Homo sapiens, UniProt Q9NXA8); experiment: Activation of SIRT5 (unknown origin) assessed as fold increase in deacetylase activity at 10 uM relative to control
[2] = target: T1, NAD-dependent protein deacylase sirtuin-5, mitochondrial; experiment: Activation of SIRT5 (unknown origin) assessed as fold increase in deacetylase activity at 200 uM relative to control
[3] = target: T1, NAD-dependent protein deacylase sirtuin-5, mitochondrial; experiment: Activation of SIRT5 (unknown origin) assessed as fold increase in deacetylase activity at 50 uM relative to control

fold change (FC) [1]: 1.5
fold change (FC) [2]: 4
fold change (FC) [3]: 3
Compound: CCOC(=O)C1=CN(C(=O)c2ccccc2)C=C(C(=O)OCC)C1c1cccc(OC)c1
